In patent US20200247897A1, “THERAPEUTIC ANTIBODIES BASED ON MUTATED IGG HEXAMERS” (GENMAB B.V., priority 2017, published 2020):
Read-outs that look alike come from different tables or passages of the source.

Legend:
SW480 = test: Drug combination screen (ATPlite, Synergy Score), SW480
HCT 116 = test: Drug combination screen (ATPlite, Synergy Score), HCT 116
SNU-C2B = test: Drug combination screen (ATPlite, Synergy Score), SNU-C2B
DLD-1 = test: Drug combination screen (ATPlite, Synergy Score), DLD-1
LS-411N = test: Drug combination screen (ATPlite, Synergy Score), LS-411N

| Molecule | Synergy Score SW480 (SW480) | Synergy Score HCT-116 (HCT 116) | Synergy Score SNU-C2B (SNU-C2B) | Synergy Score DLD-1 (DLD-1) | Synergy Score LS-411N (LS-411N) | Synergy Score DLD-1 (DLD-1; compound in combination with IgG1-hDR5-01-G56T-E430G + IgG1-hDR5-05-E430G, DLD-1, 120 hour ATPlite, 6x6 matrix) |
| --- | --- | --- | --- | --- | --- | --- |
| Cn1c(CCCC(=O)O)nc2cc(N(CCCl)CCCl)ccc21 [Bendamustine] | 0.6 | 0 | 3 | – | – | – |
| CC(C)C[C@H](NC(=O)[C@H](Cc1ccccc1)NC(=O)c1cnccn1)B(O)O [Bortezomib] | 8.9 | – | 7.5 | – | – | – |
| CN(C)/N=N/c1[nH]cnc1C(N)=O [Dacarbazine] | – | 1.5 | – | 0.8 | – | – |
| Cc1nc(Nc2ncc(C(=O)Nc3c(C)cccc3Cl)s2)cc(N2CCN(CCO)CC2)n1 [Dasatinib] | 10.2 | 1.9 | 1 | – | – | – |
| COc1cccc2c1C(=O)c1c(O)c3c(c(O)c1C2=O)C[C@@](O)(C(C)=O)C[C@@H]3O[C@H]1C[C@H](N)[C@H](O)[C@H](C)O1 [Daunorubicin] | – | – | – | 13.8 | 10.4 | – |
| C#Cc1cccc(Nc2ncnc3cc(OCCOC)c(OCCOC)cc23)c1 [Erlotinib] | 1 | – | – | – | 1.9 | – |
| Nc1nc(F)nc2c1ncn2[C@@H]1O[C@H](CO)[C@@H](O)[C@@H]1O [Fludarabine] | – | 0.9 | – | – | 0.1 | – |
| O=c1[nH]cc(F)c(=O)[nH]1 [Fluorouracil] | 0.8 | 1 | 0.4 | 1.2 | 1.1 | – |
| CS(=O)(=O)CCNCc1ccc(-c2ccc3ncnc(Nc4ccc(OCc5cccc(F)c5)c(Cl)c4)c3c2)o1 [Lapatinib] | 6.4 | – | 2.6 | – | 7.3 | – |
| N[C@@H](Cc1ccc(N(CCCl)CCCl)cc1)C(=O)O [Melphalan] | – | 1.1 | 9 | 6 | 3.4 | – |
| CN(Cc1cnc2nc(N)nc(N)c2n1)c1ccc(C(=O)N[C@@H](CCC(=O)O)C(=O)O)cc1 [Methotrexate] | – | 0.5 | 1.7 | 0.1 | 6.6 | – |
| CCN(CC)CCNC(=O)c1c(C)[nH]c(/C=C2\C(=O)Nc3ccc(F)cc32)c1C [Sunitinib] | – | – | 1.4 | 9.2 | – | – |
| COc1cc([C@@H]2c3cc4c(cc3[C@@H](O[C@@H]3O[C@@H]5CO[C@@H](c6cccs6)O[C@H]5[C@H](O)[C@H]3O)[C@H]3COC(=O)[C@H]23)OCO4)cc(OC)c1O [Teniposide] | – | – | – | 18.8 | 29.3 | – |
| CC[C@@]1(O)C(=O)OCc2c1cc1n(c2=O)Cc2cc3c(CN(C)C)c(O)ccc3nc2-1 [Topotecan] | 30.5 | – | 21.2 | – | – | – |
| O=C1[O][Pt]2([NH][C@@H]3CCCC[C@H]3[NH]2)[O]C1=O [oxaliplatin, reference compound] | – | 3.1 | 13.1 | 2.8 | – | – |
| CC[C@]1(O)C[C@H]2CN(CCc3c([nH]c4ccccc34)[C@@](C(=O)OC)(c3cc4c(cc3OC)N(C=O)[C@H]3[C@@](O)(C(=O)OC)[C@H](OC(C)=O)[C@]5(CC)C=CCN6CC[C@]43[C@@H]65)C2)C1 [vincristine] | 12.1 | – | 17.2 | – | 33 | – |
| CCC1=C[C@@H]2CN(C1)Cc1c([nH]c3ccccc13)[C@@](C(=O)OC)(c1cc3c(cc1OC)N(C)[C@H]1[C@@](O)(C(=O)OC)[C@H](OC(C)=O)[C@]4(CC)C=CCN5CC[C@]31[C@@H]54)C2 [vinorelbine] | – | 8.1 | 11 | 5.9 | 21.5 | – |
| TW-37 | – | – | – | – | – | 13.8 |
